{"sequences": {"note": "Sequences of proteins named here, by UniProt entry; tags and fusion partners are left off.", "UniProt Q99714, whole entry": "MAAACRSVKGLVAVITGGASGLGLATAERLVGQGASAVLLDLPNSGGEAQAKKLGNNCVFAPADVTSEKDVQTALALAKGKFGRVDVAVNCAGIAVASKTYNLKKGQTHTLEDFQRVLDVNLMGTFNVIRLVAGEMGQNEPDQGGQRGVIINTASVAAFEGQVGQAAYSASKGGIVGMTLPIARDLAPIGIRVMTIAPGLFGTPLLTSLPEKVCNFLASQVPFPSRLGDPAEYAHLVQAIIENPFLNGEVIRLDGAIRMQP"}, "source": "PubChem BioAssay AID886", "about": "(National Center for Advancing Translational Sciences (NCATS), 2007)", "note": "Only a part is listed here, and it is no random draw. Records with an inconclusive call do not appear. The source made the active and inactive calls. Calls follow the shape of the dose curve; as a rule, active = well fitted inhibition curve with a large enough effect; inconclusive = small, poorly fitted or top-dose-only effect; inactive = no such curve, though single readings can be large or run the other way. % is scaled to controls: 0 for no effect and ±100 for the full control effect."}
{"target": "3-hydroxyacyl-CoA dehydrogenase type-2 (Homo sapiens) (UniProt Q99714)", "experiment": "qHTS Assay for Inhibitors of HADH2 (Hydroxyacyl-Coenzyme A Dehydrogenase, Type II); also: nearly all actives have a fitted effect of over 60% in size", "conditions": "recombinant HADH2, NADH fluorescence, beta-hydroxybutyryl-CoA; at 57.1 µM (top of the series) unless noted"}
{"smiles": "N#CC1(Nc2ccccc2)CCN(CCc2ccccc2)CC1", "activity change, negative = inhibition": "inactive: -1.24%"}
{"smiles": "NC1CCCCC1.NP(=O)(O)N(CCCl)CCCl", "activity change, negative = inhibition": "inactive: 3.28% [at 11.4 µM]"}
{"smiles": "CCOP(=O)(Cl)Cl", "activity change, negative = inhibition": "inactive: -2.31%"}
{"smiles": "O=C(OC1CN2CCC1CC2)C1c2ccccc2Oc2ccccc21", "note": "(stereo not given)", "activity change, negative = inhibition": "inactive: 11.3%"}
{"smiles": "Fc1ccccc1NC1CCN(Cc2ccccc2)CC1", "activity change, negative = inhibition": "inactive: -4.76%"}
{"smiles": "CCC(CO)(C(=O)OC1CN2CCC1CC2)c1ccccc1", "note": "(stereo not given)", "activity change, negative = inhibition": "inactive: 5.37%"}
{"smiles": "O=C(O)C1(Nc2ccccc2)CCN(Cc2ccccc2)CC1", "activity change, negative = inhibition": "inactive: 10.8% [at 11.4 µM]"}
{"smiles": "CCOc1ncccc1C(=O)NCC1(N2CCOCC2)CCCCC1", "activity change, negative = inhibition": "inactive: 2.1%"}
{"smiles": "N/C(=N\\O)c1c(N)no[n+]1[O-]", "activity change, negative = inhibition": "inactive: -0.352%"}
{"smiles": "ClCCOP(OCCCl)OCCCl", "activity change, negative = inhibition": "inactive: -3.75%"}
